{
  "source": "patent US20240002326A1",
  "about": "“COMPOUNDS AND USE THEREOF IN METHODS OF TREATMENT” (The University of Queensland, priority 2016, published 2024)",
  "key": {"[1]": {"tested_on": "SOX binding site consensus DNA", "assay": "Direct DNA-binding assay (SPR), consensus DNA", "settings": "biotinylated double-strand DNA on streptavidin chip", "experimental": "Compounds were tested at a 1% v/v DMSO in HBS-EP buffer (10 mM HEPES, 150 mM NaCl, 3 mM EDTA, 0.005% v/v polysorbate 20, pH 7.4). The same buffer supplemented with 1% v/v DMSO was used as a mobile phase. DNA minor groove binder DAPI (4′,6-diamidino-2-phenylindole), DNA intercalator and minor groove binder actinomycin D, and DNA intercalator ethidium bromide were used as positive controls. Biotinylated (one tag per probe) double strand DNA probes were prepared using a standard annealing routine (5 min at 100° C., room temperature overnight and stored at −20° C.) of single strand anti-parallel DNA Probes purchased from Geneworks and were immobilized on CM5-SA streptavidin chips as per manufacturer's recommendations. […] All sample and control cycles were performed in triplicate. DMSO calibration was performed as per manufacturer's recommendations. After each injection, an extra flow system wash was performed with 50% v/v DMSO to avoid carryover. Experiments were run on a Biacore T200 (GE Healthcare, USA), with one flow cell kept as a reference.\nFrom a molecular viewpoint, an inhibitor of SOX18-DNA binding could act either by interacting directly with the DNA, or the protein, or at the interface between protein and DNA. […]"}, "SOX2 HMG fragment": {"biological_target": "SOX2 HMG fragment (Mus musculus (Mouse), UniProt P48432)", "assay": "FP DNA-binding competition assay, SOX2 HMG fragment", "settings": "read-out: DNA-binding inhibition IC50, SOX2 HMG; HMG only fragment", "experimental": "Mouse SOX HMG fragments. The HMG domains of mouse SOX2 (Group B), SOX11 (Group C), SOX6 (Group D), SOX9 (Group E), SOX18 (Group F) and SOX15 (Group G) were BP cloned from cDNA templates (IMAGE cDNA clone IDs: Sox18: 3967084; Sox9: 5354229; Sox4: 6822618) into a pDONRTM221 pENTRY vector, sequenced and recombined into a pETG20A or a pHisMBP expression plasmid using Gateway®LR Technology (Ng et al., 2012). Constructs were transformed into Escherichia coli BL21(DE3) cells (Luria-Bertani, 100 μg/ml Ampicillin).\nThe DNA-binding competition assay was performed in black 384-well plates, with mouse full length SOX18, or SOX-HMG fragments. All experiments were performed using a fluorescently-labelled Prox1-DNA element. […]\nThe DNA-binding competition assay was performed in 25 uL, in black 384-well plates, using either 30 mM HEPES (N-2-Hydroxyethylpiperazine-N′-2-Ethanesulfonic Acid) (pH 7.5, with 100 mM KCl, 40 mM NaCl, 10 mM NH4OAc, […], 2 mM MgCl2, 0.5 mM EDTA, 0.01% NP-40) for mouse full length SOX18, or Tris-NaCl (10 mM Tris pH 8.0 and 100 mM NaCl) for SOX-HMG fragments. […] After mixing protein, DNA probe and compound, plates were sealed and briskly agitated in the dark for 5 minutes at room temperature, 10 minutes at 37° C., and 30 minutes at room temperature, before reading fluorescence polarization on a Tecan M1000Pro (λexc=485 nm, λem=525 nm). […]"}, "SOX18": {"biological_target": "SOX18 (Homo sapiens (Human), UniProt P35713)", "assay": "SOX18 single molecule tracking in Hela cells", "format": "cell-based", "excerpt": "FIG. 24B depicts the experimental workflow, which involves bi-dimensional tracking of molecule trajectory and analysis using MATLAB, as outlined in Chen et al. (Cell 156, 1274-1285; 2014). We note that the immobile DNA bound fraction (%, shown in pie graphs) is of two types, specific and non-specific, depending on the dwelling time in one same DNA position; if of a short time (less than 1 second average) this is considered to be non-specific binding (i.e., transient binding to random DNA sites), and if of a long time (greater than 5-6 seconds average) this is considered to be specific binding (i.e., longer binding to target DNA sites with transcriptional effect). The dwell times of immobile DNA bound fractions (shown as bar graphs) is also of two types, specific and non-specific: The length of time in seconds that SOX18 molecules bind to DNA non-specifically (on average less than 1 second) or specifically (on average greater than 5-6 seconds). Single molecule tracking is performed after transfection of Hela cells with a SOX18-Halotag reporter construct. This expression vector enables us to detect single molecule of SOX18 protein upon addition of a ligand which becomes fluorescent after enzymatic processing by the Halotag system. Real time imaging is performed using a modified version of TIRF microscopy (HiLo) using a ZEISS ELYRA super-resolution microscope."}},
  "data": [
    {"smiles": "O=C(O)c1c(O)cccc1CCc1ccc2ccccc2c1", "values": [
      {"measurement": "binding to consensus DNA (SPR)", "setting": "[1]", "result": "do not bind"},
      {"measurement": "IC50", "setting": "SOX2 HMG fragment", "result": "270 to 310", "unit": "µM"},
      {"measurement": "SOX18 dwell time", "setting": "SOX18", "result": "increases the dwell time of the specifically bound SOX18 fraction"},
      {"measurement": "SOX18 chromatin bound fraction", "setting": "SOX18; concentration-dependent", "result": "increases SOX18 specific bound fraction"}
    ]}
  ]
}
